Source: US8022209B2, “Substituted nitrogen-containing heteroaryl derivatives useful as modulators of the histamine H4 receptor” (Janssen Pharmaceutica NV, priority 2007, dated 2011)

Sequences of proteins named here, by UniProt entry; tags and fusion partners are left off.
UniProt Q9H3N8, whole entry: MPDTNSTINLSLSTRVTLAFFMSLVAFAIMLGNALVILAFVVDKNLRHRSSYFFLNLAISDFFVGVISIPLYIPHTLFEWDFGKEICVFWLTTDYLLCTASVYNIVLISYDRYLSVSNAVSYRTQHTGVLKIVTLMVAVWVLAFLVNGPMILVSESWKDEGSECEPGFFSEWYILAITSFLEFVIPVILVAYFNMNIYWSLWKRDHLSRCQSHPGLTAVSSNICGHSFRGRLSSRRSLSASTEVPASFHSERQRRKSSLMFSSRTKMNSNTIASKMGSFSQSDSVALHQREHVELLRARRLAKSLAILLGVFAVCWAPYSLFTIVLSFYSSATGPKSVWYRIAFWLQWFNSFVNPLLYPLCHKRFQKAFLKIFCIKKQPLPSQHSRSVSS

Biological target: human histamine H4 receptor (Homo sapiens, UniProt Q9H3N8)
Assay: Binding Assay on Recombinant Human Histamine H4 Receptor
Settings: read-out: H4 Binding Ki; competition binding vs 3H-histamine (5 nM, KD 5 nM), membranes of SK-N-MC or COS7 cells transfected with human H4R; Cheng-Prusoff; average of results obtained

First: CN1CCN(c2cc(-c3cccs3)nc(Cl)n2)CC1
Second: CN1CCN(c2cc(-c3sccc3Cl)nc(Cl)n2)CC1 [compound 150]
The Ki of the first is 1.9-fold higher: 174 nM for the first, 93 nM for the second. The second binds more tightly here.

Going from `CN1CCN(c2cc(-c3cccs3)ncn2)CC1` to `CN1CCN(c2nccc(-c3cc(Cl)cs3)n2)CC1` [compound 149], the Ki rises from 133 nM to 273 nM (2.1-fold). The first binds more tightly here.

Going from `CN1CCN(c2ccnc(-c3ccc4ccccc4c3)c2)CC1` [compound 89] to `CN1CCN(c2ccnc(-c3sccc3Cl)c2)CC1` [compound 148], the Ki falls from 2000 nM to 153 nM (13-fold).
